# Literature values, collected in PMC3440242 (Peptides, 2012).
# The chains behind the UniProt entries cited, without tags or fusion partners. Residues count along the entry.
# UniProt P10082, 3-36: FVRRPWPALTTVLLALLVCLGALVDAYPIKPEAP
# UniProt P49146, whole entry: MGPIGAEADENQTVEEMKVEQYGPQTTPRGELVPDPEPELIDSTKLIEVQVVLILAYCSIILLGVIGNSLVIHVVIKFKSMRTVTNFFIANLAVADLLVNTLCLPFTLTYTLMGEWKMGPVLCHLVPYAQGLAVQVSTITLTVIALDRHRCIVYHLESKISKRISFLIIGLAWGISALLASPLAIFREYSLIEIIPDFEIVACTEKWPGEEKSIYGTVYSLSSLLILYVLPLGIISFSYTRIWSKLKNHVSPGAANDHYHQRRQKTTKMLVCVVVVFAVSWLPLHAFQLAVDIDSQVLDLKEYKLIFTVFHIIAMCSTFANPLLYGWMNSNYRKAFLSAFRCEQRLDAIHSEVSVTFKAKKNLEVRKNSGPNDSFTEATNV
# Molecular target: hPYY(3-36) 3-36 (Homo sapiens) (UniProt P10082)
# Assay: Scatchard
# Conditions: cited from earlier work
substance,measurement,value
neuropeptide Y Y2 receptor (from UniProt P49146),Kd,0.13 nM
